The source of these data is ChEMBL document CHEMBL1138285, “Structure-activity relationships of adenosines with heterocyclic N6-substituents” (Bioorg Med Chem Lett, 2007).

Test [1] concerns Adenosine receptor A1 (Mesocricetus auratus). Put plainly: Intrinsic activity at adenosine A1 receptor expressed in DDT1 MF2 cells assessed as maximal inhibition of (-)-isoproterenol-stimulated cAMP accumulation.
Another test is filed under the species Homo sapiens. Put plainly: Selectivity for adenosine A1 receptor over adenosine A2A receptor.

On to `OC[C@H]1O[C@@H](n2cnc3c(NC4CC5CCC4N5)ncnc32)[C@H](O)[C@@H]1O` (stereo not given in full), for which, in test [1], the Intrinsic activity worked out at 1.02.

Consider `O=C(OCc1ccccc1)N1CC[C@@H](Nc2ncnc3c2ncn3[C@@H]2O[C@H](CO)[C@@H](O)[C@H]2O)C1`, for which the Intrinsic activity in test [1] was 0.99. For the same compound, the Ratio Ki in the test listed under Homo sapiens was > 4700.

On to `O=C(OCc1ccccc1Cl)N1[C@H]2CC[C@H]1[C@H](Nc1ncnc3c1ncn3[C@@H]1O[C@H](CO)[C@@H](O)[C@H]1O)C2`, for which the Intrinsic activity in test [1] came to 0.86.

On to `OC[C@H]1O[C@@H](n2cnc3c(N[C@@H]4CCSC4)ncnc32)[C@H](O)[C@@H]1O`, for which the Intrinsic activity in test [1] amounted to 0.98. The Ratio Ki in the test listed under Homo sapiens is 140.

`CC(=O)N1CC[C@@H](Nc2ncnc3c2ncn3[C@@H]2O[C@H](CO)[C@@H](O)[C@H]2O)C1`: the Intrinsic activity in test [1] turned out to be 1. The Ratio Ki in the test filed under Homo sapiens is > 4700.

In the case of `OC[C@H]1O[C@@H](n2cnc3c(N[C@@H]4CC[Se]C4)ncnc32)[C@H](O)[C@@H]1O`, the Intrinsic activity in test [1] is 1.01.

For the compound `O=C(OCc1ccccc1)N1[C@H]2CC[C@H]1[C@H](Nc1ncnc3c1ncn3[C@@H]1O[C@H](CO)[C@@H](O)[C@H]1O)C2`, the Intrinsic activity in test [1] turned out to be 1.01.
